Data published in patent US8623906B2, “Carboxy isatin hydrazones and their esters as Shp2 inhibitors” (H. Lee Moffitt Cancer Center and Research Institute, Inc., priority 2009, dated 2014).

Experiments:
[1] = system: GST-Shp2 PTP domain protein; type: biochemical
Protocol: All reactions were monitored by thin layer chromatography (TLC) or ^1H NMR. Some products, which could not be purified by simply washing, were purified by Flashmaster chromatography. […] After the purity and structure were confirmed, samples were tested for IC50 by DiFMUP assay, seen in Table 1, appended.
Curve fitting and IC50 were obtained using the GraphPad Prism program (GraphPad Software).

[2] = system: His-tagged Shp2 (amino acids 1-525)
[3] = target: non-fusion Shp2 PTP protein

How did the IC50 [1] turn out when `O=C1Nc2ccc(S(=O)(=O)NCc3ccc(F)cc3)cc2/C1=N/Nc1cccc(C(=O)O)c1` [SPI-112, (Z)-3-(2-(5-(N-(4-fluorobenzyl)sulfamoyl)-2-oxoindolin-3-ylidene)hydrazinyl)benzoic acid] was run?
The IC50 was 1000 nM.

What about the “association rate Ka” value [2] of the same compound?
The value was 22400 M⁻¹ s⁻¹.

What about the “dissociation rate Kd” value [2] of the same compound?
Its value is 0.029 s⁻¹.

And the Kd ([2]; read-out: kinetic constant (KD))?
The Kd was 1300 nM.

What about the Ki [3] of the same compound?
Its Ki is 800 nM.
